This assay concerns the target EGFR T790M L858R (Homo sapiens, UniProt P00533, L858R/T790M). The assay can be described thus: biochemical. The settings on record: EGFR(T790M/L858R) Ki (μM), 5 μM ATP, 30 min, room temperature; apparent Ki (Morrison) converted by Cheng-Prusoff, Km of ATP 1.3 μM.

The chains behind the UniProt entries cited, without tags or fusion partners. Residues count along the entry.
UniProt P00533, 25-1210 T790M/L858R limits assumed: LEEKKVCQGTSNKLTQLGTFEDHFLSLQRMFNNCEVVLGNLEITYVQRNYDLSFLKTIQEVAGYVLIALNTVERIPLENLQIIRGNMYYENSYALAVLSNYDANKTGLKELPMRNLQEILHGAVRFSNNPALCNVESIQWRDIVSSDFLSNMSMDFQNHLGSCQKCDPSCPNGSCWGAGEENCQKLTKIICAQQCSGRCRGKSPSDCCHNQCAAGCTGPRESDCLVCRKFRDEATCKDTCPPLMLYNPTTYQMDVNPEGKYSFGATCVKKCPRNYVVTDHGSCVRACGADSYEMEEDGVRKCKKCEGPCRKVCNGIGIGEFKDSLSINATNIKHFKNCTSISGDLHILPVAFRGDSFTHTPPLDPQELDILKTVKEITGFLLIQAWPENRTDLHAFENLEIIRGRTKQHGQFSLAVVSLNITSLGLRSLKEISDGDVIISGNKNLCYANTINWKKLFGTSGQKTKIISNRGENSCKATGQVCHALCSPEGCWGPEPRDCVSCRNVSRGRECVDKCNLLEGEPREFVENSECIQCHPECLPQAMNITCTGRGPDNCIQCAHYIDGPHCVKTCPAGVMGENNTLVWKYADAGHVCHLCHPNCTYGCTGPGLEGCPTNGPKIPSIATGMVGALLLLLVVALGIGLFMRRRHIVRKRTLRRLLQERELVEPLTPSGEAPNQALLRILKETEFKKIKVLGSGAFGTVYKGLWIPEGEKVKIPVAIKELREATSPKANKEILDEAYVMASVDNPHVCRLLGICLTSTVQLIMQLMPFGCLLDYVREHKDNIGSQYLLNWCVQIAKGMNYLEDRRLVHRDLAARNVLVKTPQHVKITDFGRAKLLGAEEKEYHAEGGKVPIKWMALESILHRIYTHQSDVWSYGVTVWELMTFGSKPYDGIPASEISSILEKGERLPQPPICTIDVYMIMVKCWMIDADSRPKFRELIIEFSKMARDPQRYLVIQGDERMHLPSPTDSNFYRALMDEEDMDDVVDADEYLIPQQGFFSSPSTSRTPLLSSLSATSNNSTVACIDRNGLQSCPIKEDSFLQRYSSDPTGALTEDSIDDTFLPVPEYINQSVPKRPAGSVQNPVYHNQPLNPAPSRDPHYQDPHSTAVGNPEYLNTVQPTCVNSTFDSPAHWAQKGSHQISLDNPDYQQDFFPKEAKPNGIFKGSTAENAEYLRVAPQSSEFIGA

We go through 33 molecules from US9890152B2 (Genentech, Inc., priority 2012, dated 2018).

As to `Cc1nc2cnc(Nc3ccnc(N4CCC(C)(C(N)=O)C4)n3)cc2n1C(C)C` (stereo not drawn) [Example 306, 1-[4-(1-Isopropyl-2-methyl-1H-imidazo[4,5-c]pyridin-6-ylamino)pyrimidin-2-yl]-3-methylpyrrolidine-3-carboxylic acid amide], the Ki is 0.0664 µM.

`CCC/C=C/c1nccc(Nc2cc3c(cn2)nc(C)n3C(C)C)n1` [Example 307]: the Ki came to 0.133 µM.

Consider `Cc1nc2cnc(Nc3ccnc(-c4cccnc4)n3)cc2n1C(C)C` [Example 309, (1-Isopropyl-2-methyl-1H-imidazo[4,5-c]pyridin-6-yl)-(2-pyridin-3-ylpyrimidin-4-yl)amine], for which the Ki was 0.0181 µM.

Turning to `Cc1nc2cnc(Nc3ccnc(/C=C/C(C)(C)C(N)=O)n3)cc2n1C(C)C` [Example 310, (E)-4-[4-(1-Isopropyl-2-methyl-1H-imidazo[4,5-c]pyridin-6-ylamino)pyrimidin-2-yl]-2,2-dimethylbut-3-enoic acid amide], the Ki was 0.0706 µM.

Take `Cc1nc2cnc(Nc3ccnc(-c4cncn4C)n3)cc2n1C(C)C` [Example 311, (1-Isopropyl-2-methyl-1H-imidazo[4,5-c]pyridin-6-yl)-[2-(3-methyl-3H-imidazol-4-yl)pyrimidin-4-yl]amine]: the Ki came out at 0.334 µM.

Consider `Cc1nc2cnc(Nc3ccnc(-c4ccc(C(N)=O)nc4)n3)cc2n1C(C)C` [Example 313, 5-[4-(1-Isopropyl-2-methyl-1H-imidazo[4,5-c]pyridin-6-ylamino)pyrimidin-2-yl]pyridine-2-carboxylic acid amide], for which the Ki amounted to 0.266 µM.

In the case of `CNc1ccc(-c2nccc(Nc3cc4c(cn3)nc(C)n4C(C)C)n2)cn1` [Example 314, (1-Isopropyl-2-methyl-1H-imidazo[4,5-c]pyridin-6-yl)-[2-(6-methylaminopyridin-3-yl)pyrimidin-4-yl]amine], the Ki came out at 0.0325 µM.

Take `CC(=O)N(C)c1ncc(-c2nccc(Nc3cc4c(cn3)nc(C)n4C(C)C)n2)s1` [Example 315, N-{5-[4-(1-Isopropyl-2-methyl-1H-imidazo[4,5-c]pyridin-6-ylamino)pyrimidin-2-yl]thiazol-2-yl}-N-methylacetamide]: the Ki is 0.0205 µM.

As to `Cc1nc2cnc(Nc3ccnc(-c4cnc(S(=O)(=O)c5ccccc5)n4C)n3)cc2n1C(C)C` [Example 316, [2-(2-Benzenesulfonyl-3-methyl-3H-imidazol-4-yl)pyrimidin-4-yl]-(1-isopropyl-2-methyl-1H-imidazo[4,5-c]pyridin-6-yl)amine], the Ki worked out at 0.836 µM.

Consider `Cc1nc2cnc(Nc3ccnc(-c4cnc(N(C)C)s4)n3)cc2n1C(C)C` [Example 317, [2-(2-Dimethylaminothiazol-5-yl)pyrimidin-4-yl]-(1-isopropyl-2-methyl-1H-imidazo[4,5-c]pyridin-6-yl)amine], for which the Ki was found to be 0.00178 µM.

Turning to `Cc1nc2cnc(Nc3ccnc(N4CNC(=O)C4)n3)cc2n1C(C)C` [Example 318, 1-[4-(1-Isopropyl-2-methyl-1H-imidazo[4,5-c]pyridin-6-ylamino)pyrimidin-2-yl]imidazolidin-4-one], the Ki amounted to 0.462 µM.

`COC1CCN(c2nccc(Nc3cc4[nH]ccc4cn3)n2)CC1` [Example 319]: the Ki was found to be 0.525 µM.

In the case of `CC(C)n1cc(NC(=O)CO)c2cnc(Nc3ccnc(-c4cnn(S(=O)(=O)C5CC5)c4)n3)cc21` [Example 328, N-(6-((2-(1-(Cyclopropylsulfonyl)-1H-pyrazol-4-yl)pyrimidin-4-yl)amino)-1-isopropyl-1H-pyrrolo[3,2-c]pyridin-3-yl)-2-hydroxyacetamide], the Ki is 0.000928 µM.

On to `Cc1nc2cnc(Nc3ccnc(NCC(C)(C)c4nnc[nH]4)n3)cc2n1C(C)C` [Example 329, N^4-(1-Isopropyl-2-methyl-1H-imidazo[4,5-c]pyridin-6-yl)-N^2-(2-methyl-2-(4H-1,2,4-triazol-3-yl)propyl)pyrimidine-2,4-diamine], for which the Ki is 0.174 µM.

As to `CC(C)n1cc(N2CCOCC2)c2cnc(Nc3ccnc(-c4cnn(S(=O)(=O)C5CC5)c4)n3)cc21` [Example 330, N-(2-(1-(Cyclopropylsulfonyl)-1H-pyrazol-4-yl)pyrimidin-4-yl)-1-isopropyl-3-morpholino-1H-pyrrolo[3,2-c]pyridin-6-amine], the Ki was found to be 0.0034 µM.

Regarding `CC(C)n1cc(-c2cnn(CC(N)=O)c2)c2cnc(Nc3ccnc(-c4cnn(S(=O)(=O)C5CC5)c4)n3)cc21` [Example 331, 2-(4-(6-((2-(1-(Cyclopropylsulfonyl)-1H-pyrazol-4-yl)pyrimidin-4-yl)amino)-1-isopropyl-1H-pyrrolo[3,2-c]pyridin-3-yl)-1H-pyrazol-1-yl)acetamide], the Ki turned out to be 0.000828 µM.

As to `COC1CCN(c2nccc(Nc3cc4c(cn3)c(S(C)(=O)=O)cn4C(C)C)n2)CC1` [Example 333, 1-Isopropyl-N-(2-(4-methoxypiperidin-1-yl)pyrimidin-4-yl)-3-(methylsulfonyl)-1H-pyrrolo[3,2-c]pyridin-6-amine], the Ki came out at 0.0443 µM.

In the case of `C=C(F)n1cc(-c2nccc(Nc3cc4c(cn3)nc(CO)n4C(C)C)n2)cn1` [Example 334, (6-((2-(1-(1-Fluorovinyl)-1H-pyrazol-4-yl)pyrimidin-4-yl)amino)-1-isopropyl-1H-imidazo[4,5-c]pyridin-2-yl)methanol], the Ki came to 0.0279 µM.

As for `Cc1nc2cnc(Nc3ccnc(-c4cnn(CC5CC5)c4Cl)n3)cc2n1C(C)C` [Example 336, N-(2-(5-Chloro-1-(cyclopropylmethyl)-1H-pyrazol-4-yl)pyrimidin-4-yl)-1-isopropyl-2-methyl-1H-imidazo[4,5-c]pyridin-6-amine], the Ki came to 0.0378 µM.

As for `Cc1nc2cnc(Nc3ccnc(-c4cnn(CC(C)(C)O)c4)n3)cc2n1C(C)C` [Example 341, 1-(4-(4-((1-Isopropyl-2-methyl-1H-imidazo[4,5-c]pyridin-6-yl)amino)pyrimidin-2-yl)-1H-pyrazol-1-yl)-2-methylpropan-2-ol], the Ki was 0.107 µM.

Take `Cc1nc2cnc(Nc3ccnc(-c4cnn(C(C)(C)CO)c4)n3)cc2n1C(C)C` [Example 342, 2-(4-(4-((1-Isopropyl-2-methyl-1H-imidazo[4,5-c]pyridin-6-yl)amino)pyrimidin-2-yl)-1H-pyrazol-1-yl)-2-methylpropan-1-ol]: the Ki is 0.0807 µM.

For `Cc1nc2cnc(Nc3ccnc(SCC(C)(C)C(N)=O)n3)cc2n1C(C)C` [Example 343, 3-((4-((1-Isopropyl-2-methyl-1H-imidazo[4,5-c]pyridin-6-yl)amino)pyrimidin-2-yl)thio)-2,2-dimethylpropanamide], the Ki worked out at 0.621 µM.

In the case of `Cc1nc2cnc(Nc3ccnc(-c4cnn(CC5CCNC5)c4)n3)cc2n1C(C)C` (stereo not drawn) [Example 344, 1-Isopropyl-2-methyl-N-(2-(1-(pyrrolidin-3-ylmethyl)-1H-pyrazol-4-yl)pyrimidin-4-yl)-1H-imidazo[4,5-c]pyridin-6-amine], the Ki amounted to 0.0455 µM.

With `Cc1n[nH]c(C)c1-c1cn(C(C)C)c2cc(Nc3ccnc(-c4cnn(S(=O)(=O)C5CC5)c4)n3)ncc12` [Example 345, N-(2-(1-(Cyclopropylsulfonyl)-1H-pyrazol-4-yl)pyrimidin-4-yl)-3-(3,5-dimethyl-1H-pyrazol-4-yl)-1-isopropyl-1H-pyrrolo[3,2-c]pyridin-6-amine], the Ki stood at 0.0145 µM.

As for `Cc1cn[nH]c1-c1cn(C(C)C)c2cc(Nc3ccnc(-c4cnn(S(=O)(=O)C5CC5)c4)n3)ncc12` [Example 346, N-(2-(1-(cyclopropylsulfonyl)-1H-pyrazol-4-yl)pyrimidin-4-yl)-1-isopropyl-3-(4-methyl-1H-pyrazol-5-yl)-1H-pyrrolo[3,2-c]pyridin-6-amine], the Ki was 0.00421 µM.

As for `Cc1cn[nH]c1-c1cn(C(C)C)c2cc(Nc3ccnc(N4CCC(O)C(C)(C)C4)n3)ncc12` (stereo not drawn) [Example 347, 1-(4-((1-Isopropyl-3-(4-methyl-1H-pyrazol-5-yl)-1H-pyrrolo[3,2-c]pyridin-6-yl)amino)pyrimidin-2-yl)-3,3-dimethylpiperidin-4-ol], the Ki was found to be 0.00576 µM.

Take `CO[C@H]1CCN(c2nccc(Nc3cc4c(cn3)c(-c3nn(CCO)cc3C)cn4C(C)C)n2)C[C@H]1F` [Example 348, 2-(3-(6-((2-((3R,4S)-3-Fluoro-4-methoxypiperidin-1-yl)pyrimidin-4-yl)amino)-1-isopropyl-1H-pyrrolo[3,2-c]pyridin-3-yl)-4-methyl-1H-pyrazol-1-yl)ethanol]: the Ki came out at 0.00296 µM.

On to `COC1CCN(c2nccc(Nc3cc4c(cn3)nc(C)n4C(C)CC#N)n2)CC1` (stereo not drawn) [Example 349, 3-(6-((2-(4-Methoxypiperidin-1-yl)pyrimidin-4-yl)amino)-2-methyl-1H-imidazo[4,5-c]pyridin-1-yl)butanenitrile], for which the Ki came out at 0.0609 µM.

As to `COC1CCN(c2nccc(Nc3cc4c(cn3)nc(C)n4C(C)CC(N)=O)n2)CC1` (stereo not drawn) [Example 352, 3-(6-((2-(4-Methoxypiperidin-1-yl)pyrimidin-4-yl)amino)-2-methyl-1H-imidazo[4,5-c]pyridin-1-yl)butanamide], the Ki came to 0.107 µM.

Consider `COC1CCN(c2nccc(Nc3cc4c(cn3)nc(C)n4C(C)c3ccc(C#N)cc3)n2)CC1` (stereo not drawn) [Example 353, 4-(1-(6-((2-(4-Methoxypiperidin-1-yl)pyrimidin-4-yl)amino)-2-methyl-1H-imidazo[4,5-c]pyridin-1-yl)ethyl)benzonitrile], for which the Ki amounted to 0.0393 µM.

Turning to `COC1CCN(c2nccc(Nc3cc4c(cn3)nc(C)n4C(C)c3ccc(C(N)=O)cc3)n2)CC1` (stereo not drawn) [Example 354, 4-(1-(6-((2-(4-Methoxypiperidin-1-yl)pyrimidin-4-yl)amino)-2-methyl-1Himidazo[4,5-c]pyridin-1-yl)ethyl)benzamide], the Ki is 0.305 µM.

Consider `COC1CCN(c2nccc(Nc3cc4c(cn3)nc(C)n4Cc3cccc4[nH]ncc34)n2)CC1` [Example 355, 1-(1H-Indazol-4-ylmethyl)-N-[2-(4-methoxy-1-piperidyl)pyrimidin-4-yl]-2-methyl-imidazo[4,5-c]pyridin-6-amine], for which the Ki turned out to be 0.046 µM.

As for `COC1CCN(c2nccc(Nc3cc4c(cn3)nc(C)n4Cc3ccccc3)n2)CC1` [Example 356, 1-Benzyl-N-[2-(4-methoxy-1-piperidyl)pyrimidin-4-yl]-2-methyl-imidazo[4,5-c]pyridin-6-amine], the Ki worked out at 0.0477 µM.
